Assay: in vitro
Details: human, pooled human plasma, pH 7.4, PPB (%), equilibrium dialysis 5 h, 37 °C

## CC(=O)CC(c1ccccc1)c1c(O)c2ccccc2oc1=O (stereo not shown) [warfarin, reference compound]
  fraction unbound at 5 h, 10 µg mL^−1: 0.016

— PMC7961380, “A Systematic Study of the In Vitro Pharmacokinetics and Estimated Human In Vivo Clearance of Indole and Indazole-3-Carboxamide Synthetic Cannabinoid Receptor Agonists Detected on the Illicit Drug Market” (Molecules, 2021)
